{"sequences": {"note": "The chains behind the UniProt entries cited, without tags or fusion partners.", "UniProt P09923, whole entry": "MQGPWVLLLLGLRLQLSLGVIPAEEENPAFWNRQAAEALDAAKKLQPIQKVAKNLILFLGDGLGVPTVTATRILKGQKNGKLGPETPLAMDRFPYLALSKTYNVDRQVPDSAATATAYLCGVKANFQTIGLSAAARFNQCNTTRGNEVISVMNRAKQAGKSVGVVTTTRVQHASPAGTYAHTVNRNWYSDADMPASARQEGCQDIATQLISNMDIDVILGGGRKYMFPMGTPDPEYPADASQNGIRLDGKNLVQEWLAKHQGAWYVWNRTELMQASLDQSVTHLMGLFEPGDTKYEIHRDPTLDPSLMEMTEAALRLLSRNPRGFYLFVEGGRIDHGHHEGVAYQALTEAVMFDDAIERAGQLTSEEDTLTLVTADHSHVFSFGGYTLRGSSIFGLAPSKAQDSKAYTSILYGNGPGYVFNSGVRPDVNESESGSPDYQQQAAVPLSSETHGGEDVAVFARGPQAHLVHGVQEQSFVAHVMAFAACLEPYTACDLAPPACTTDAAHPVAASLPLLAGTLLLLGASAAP"}, "source": "PubChem BioAssay AID2544", "about": "(Sanford-Burnham Center for Chemical Genomics, 2010)", "note": "The list shows a part of the results, in another mix than the full data. Activity calls are given as the source filed them.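 Rule for the calls: active = inhibition reaching a set limit with compound at 10 µM in the primary screen (cut at about 35% in these data); inactive = the rest.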", "data": [{"biological_target": "Intestinal-type alkaline phosphatase (Homo sapiens) (UniProt P09923)", "experiment": "human IAP inhibitors, primary screen, biochemical, luminescence, uHTS (AID 2544);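 note: plate controls were DMSO wells with enzyme for no effect and no-enzyme buffer wells for full effect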", "details": "purified IAP, CDP-Star luminescence, 30 min; at 10 µM; stronger effect = higher value", "values": [{"smiles": "CN(C)C1(CNC(=O)c2cccc(C#N)c2)CCCCC1", "inhibition": "inactive: -0.9%"}, {"smiles": "c1ccc(CN2CCC(Nc3ccccc3)CC2)cc1", "inhibition": "inactive: -1.5%"}, {"smiles": "CCCN1CCC(Nc2cc(OC)cc(OC)c2)CC1", "inhibition": "inactive: -24.3%"}, {"smiles": "N#Cc1ccc(C(=O)NCC2(N3CCCCC3)CCCCC2)cc1", "inhibition": "inactive: -2.1%"}, {"smiles": "CC(C)(C)OC(=O)N1CCC(N(C(=O)c2ccccc2)c2ccc(Cl)cc2)CC1", "inhibition": "inactive: 11.4%"}, {"smiles": "CCOC(=O)N1CCC(Nc2ccc(C)cc2)CC1", "inhibition": "inactive: -13.9%"}, {"smiles": "N/C(=N\\O)c1c(N)no[n+]1[O-]", "inhibition": "inactive: 5%"}, {"smiles": "O=C(OC1CN2CCC1CC2)C1c2ccccc2C=Cc2ccccc21", "note": "(configuration not stated)", "inhibition": "inactive: 7.5%"}, {"smiles": "CCc1cc(C(=O)NCC2(N3CCCCC3)CCCCC2)sc1C", "inhibition": "inactive: 10.9%"}, {"smiles": "COc1cc(C(=O)NCC2(N3CCOCC3)CCCCC2)cc(OC)c1C", "inhibition": "inactive: -5.4%"}, {"smiles": "O=C(NCC1(N2CCOCC2)CCCCC1)c1cc(Br)ccc1Cl", "inhibition": "inactive: 3.9%"}, {"smiles": "COc1ccc(C(=O)NCC2(N3CCOCC3)CCCCC2)cc1OC", "inhibition": "inactive: 6.2%"}, {"smiles": "COc1cccc(C(=O)N(c2cc(C)cc(C)c2)C2CCN(C(=O)OC(C)(C)C)CC2)c1", "inhibition": "inactive: -20%"}, {"smiles": "COc1cc(OC)cc(C(=O)NCC2(N3CCOCC3)CCCCC2)c1", "inhibition": "inactive: -9.1%"}, {"smiles": "CCC(CO)(C(=O)OC1CN2CCC1CC2)c1ccccc1", "note": "(configuration not stated)", "inhibition": "inactive: -3.9%"}, {"smiles": "CN1CCC(Nc2ccc(Cl)cc2)CC1", "inhibition": "inactive: -5.9%"}, {"smiles": "CCCOc1ccc(C)cc1CN(CCCl)CCCl", "inhibition": "inactive: -6.3%"}, {"smiles": "CCOc1ncccc1C(=O)NCC1(N2CCOCC2)CCCCC1", "inhibition": "inactive: 16%"}, {"smiles": "CN1CCC(Nc2ccc(F)c(Cl)c2)CC1", "inhibition": "inactive: -19.1%"}, {"smiles": "CC(C)(C)OC(=O)N1CCC(Nc2ccccc2)CC1", "inhibition": "inactive: -7.2%"}, {"smiles": "O=C(O)C1(Nc2ccccc2)CCN(Cc2ccccc2)CC1", "inhibition": "inactive: -14.1%"}, {"smiles": "CCCOc1ccc(C(=O)NCC2(N(C)C)CCCCC2)cc1", "inhibition": "inactive: 13.8%"}, {"smiles": "CCN1CCC(Nc2cccc(F)c2)CC1", "inhibition": "inactive: -3.3%"}, {"smiles": "O=C(NCC1(N2CCCCC2)CCCCC1)c1ccco1", "inhibition": "inactive: 13.6%"}, {"smiles": "CN(C)c1ccc(C(=O)NCC2(N3CCCCC3)CCCCC2)cc1", "inhibition": "inactive: -19.7%"}, {"smiles": "COc1cc(OC)cc(C(=O)NCC2(N3CCCCC3)CCCCC2)c1", "inhibition": "inactive: -10.1%"}, {"smiles": "Cc1ccc(C(=O)NCC2(N3CCCCC3)CCCCC2)o1", "inhibition": "inactive: 2.6%"}, {"smiles": "Fc1ccccc1NC1CCN(Cc2ccccc2)CC1", "inhibition": "inactive: -24%"}, {"smiles": "CCOC(=O)N1CCC(Nc2cccc(C)c2)CC1", "inhibition": "inactive: 2.1%"}, {"smiles": "Cc1ccc(OCC(C)C)c(CN(CCCl)CCCl)c1", "inhibition": "inactive: 1.4%"}, {"smiles": "CCOc1ccc(C)cc1CN(CCCl)CCCl", "inhibition": "inactive: -17.9%"}, {"smiles": "O=C(NCC1(N2CCCCC2)CCCCC1)c1ccc(F)cc1", "inhibition": "inactive: -1.6%"}, {"smiles": "CCCCOc1ccc(C(=O)NCC2(N3CCOCC3)CCCCC2)cc1", "inhibition": "inactive: -15.9%"}, {"smiles": "CCOC(=O)N1CCC(Nc2ccc(F)cc2)CC1", "inhibition": "inactive: -10.6%"}, {"smiles": "COc1ccc(NC2CCN(CCc3ccccc3)CC2)c(OC)c1", "inhibition": "inactive: 8.2%"}, {"smiles": "O=C(NCC1(N2CCCCC2)CCCCC1)c1ccc(Cl)nc1", "inhibition": "inactive: 8.2%"}, {"smiles": "Cc1cc(C)cc(N(C(=O)c2ccccc2)C2CCN(C(=O)OC(C)(C)C)CC2)c1", "inhibition": "inactive: 11.2%"}, {"smiles": "O=C(NCC1(N2CCOCC2)CCCCC1)c1cc2ccccc2o1", "inhibition": "inactive: -11.3%"}, {"smiles": "O=C(OC1CN2CCC1CC2)C1c2ccccc2Oc2ccccc21", "note": "(configuration not stated)", "inhibition": "inactive: 5.3%"}, {"smiles": "N#CC1(Nc2ccccc2)CCN(Cc2ccccc2)CC1", "inhibition": "inactive: 0.1%"}, {"smiles": "O=C(NCC1(N2CCCCC2)CCCCC1)c1ccc(Cl)s1", "inhibition": "inactive: 0.6%"}, {"smiles": "COc1ccc(Cl)cc1C(=O)NCC1(N2CCOCC2)CCCCC1", "inhibition": "inactive: 7.4%"}, {"smiles": "CCOC(=O)N1CCC(Nc2ccc(OC)cc2)CC1", "inhibition": "inactive: -12.1%"}, {"smiles": "COc1ccc(C(=O)NCC2(N3CCCCC3)CCCCC2)cc1", "inhibition": "inactive: 3.2%"}, {"smiles": "COc1ccc(C(=O)NCC2(N3CCCCC3)CCCCC2)c(OC)c1OC", "inhibition": "inactive: -15%"}, {"smiles": "CC(C)(C)OC(=O)N1CCC(N(C(=O)c2ccccc2)c2ccc(F)cc2)CC1", "inhibition": "inactive: 6.2%"}, {"smiles": "O=C(NCC1(N2CCCCC2)CCCCC1)c1ccc(=O)[nH]c1", "inhibition": "inactive: 4.1%"}, {"smiles": "O=C(NCC1(N2CCCCC2)CCCCC1)c1cccs1", "inhibition": "inactive: 6.4%"}, {"smiles": "CSc1ccccc1C(=O)NCC1(N2CCCCC2)CCCCC1", "inhibition": "inactive: 1.3%"}, {"smiles": "O=C(NCC1(N2CCCCC2)CCCCC1)c1cncc(Br)c1", "inhibition": "inactive: 4.8%"}, {"smiles": "CN1CCC(Nc2cccc(F)c2)CC1", "inhibition": "inactive: 3.1%"}, {"smiles": "CC(C)c1ccc(NC2CCN(C(=O)OC(C)(C)C)CC2)cc1", "inhibition": "inactive: -10.4%"}, {"smiles": "COc1ccc(CN(CCCl)CCCl)cc1Cl", "inhibition": "inactive: -11.9%"}, {"smiles": "CN(C)c1cccc(C(=O)NCC2(N3CCCCC3)CCCCC2)c1", "inhibition": "inactive: -15.1%"}, {"smiles": "COc1cc(OC)c(C(=O)NCC2(N(C)C)CCCCC2)cc1OC", "inhibition": "inactive: -9.4%"}, {"smiles": "O=C(NCC1(N2CCOCC2)CCCCC1)c1cc(F)c(F)cc1Cl", "inhibition": "inactive: -5.4%"}, {"smiles": "O=C(NCC1(N2CCCCC2)CCCCC1)c1cccc(C(F)(F)F)c1", "inhibition": "inactive: -10.1%"}, {"smiles": "O=C(NCC1(N2CCOCC2)CCCCC1)c1cc(=O)[nH]c2ccccc12", "inhibition": "inactive: -6.7%"}, {"smiles": "COc1cc(C(=O)NCC2(N3CCCCC3)CCCCC2)ccc1OC(F)F", "inhibition": "inactive: 18.3%"}, {"smiles": "COc1ccc(NC2CCN(C(=O)OC(C)(C)C)CC2)cc1", "inhibition": "inactive: 3.5%"}, {"smiles": "CC(C)c1ccc(C(=O)NCC2(N3CCOCC3)CCCCC2)cc1", "inhibition": "inactive: -15.9%"}, {"smiles": "CN1CCN(CCOC(=O)C(O)(c2ccccc2)c2ccccc2)CC1", "inhibition": "inactive: 11.3%"}, {"smiles": "O=C(NCC1(N2CCCCC2)CCCCC1)c1ccc(OC(F)F)cc1", "inhibition": "inactive: -18.1%"}, {"smiles": "CCN1CCC(Nc2ccc(Cl)cc2)CC1", "inhibition": "inactive: 18.1%"}, {"smiles": "N#CC1(Nc2ccccc2)CCN(CCc2ccccc2)CC1", "inhibition": "inactive: -8.9%"}, {"smiles": "CSc1ccc(C(=O)NCC2(N3CCOCC3)CCCCC2)cc1", "inhibition": "inactive: -8%"}, {"smiles": "O=C(NCC1(N2CCCCC2)CCCCC1)c1cccc([N+](=O)[O-])c1", "inhibition": "inactive: 13%"}]}]}
